The list shows a part of the results, in another mix than the full data. Active and inactive are the calls of the source. Calls come from the whole dose curve; as a rule, active = well fitted activation curve with a large enough effect; inconclusive = small, poorly fitted or top-dose-only effect; inactive = flat fitted curve, though single readings scatter.

This assay can be described thus: qHTS Assay for Allosteric/Competitive Inhibitors of Caspase-1: Spectroscopic Profiling in AFC Spectral Region. Note: 0% is about no effect. The following applies: compound fluorescence, AFC spectral region (405/520 nm); at 57.5 µM (top of the series) unless noted.
Take `COc1ccc(NC2CCN(CCc3ccccc3)CC2)c(OC)c1`: the fluorescence increase was inactive: 0.821%.
Consider `O=C(OC1CN2CCC1CC2)C1c2ccccc2Oc2ccccc21` (stereo unspecified), for which the fluorescence increase is inactive: 2.19%.
As to `NC1CCCCC1.NP(=O)(O)N(CCCl)CCCl`, the fluorescence increase was inactive: -0.317% [at 11.5 µM].
Take `CCOP(=O)(Cl)Cl`: the fluorescence increase is inactive: -0.389%.
`N#CC1(Nc2ccccc2)CCN(CCc2ccccc2)CC1`: the fluorescence increase was inactive: -0.555%.
The same measure for `ClCCOP(OCCCl)OCCCl`: inactive: 5.21%; for `N/C(=N\O)c1c(N)no[n+]1[O-]`: inactive: 1.02%.
With `CCC(CO)(C(=O)OC1CN2CCC1CC2)c1ccccc1` (stereo unspecified), the fluorescence increase is inactive: 0.52%.
As for `O=C(O)C1(Nc2ccccc2)CCN(Cc2ccccc2)CC1`, the figure is inactive: 0.806% [at 11.5 µM]; as for `CCOc1ncccc1C(=O)NCC1(N2CCOCC2)CCCCC1`, inactive: -0.0337%; as for `Fc1ccccc1NC1CCN(Cc2ccccc2)CC1`, inactive: 0.169%.

(Values after PubChem BioAssay AID923 (National Center for Advancing Translational Sciences (NCATS), 2007).)
